We go through one compound from patent publication US20240382474A1, “ENPP1 MODULATORS AND USES THEREOF” (Vir Biotechnology, Inc., priority 2021, published 2024).

Chains of the proteins cited; added tags and fusions are not shown. Residues count along the entry.
UniProt P22413, 191-591 limits assumed: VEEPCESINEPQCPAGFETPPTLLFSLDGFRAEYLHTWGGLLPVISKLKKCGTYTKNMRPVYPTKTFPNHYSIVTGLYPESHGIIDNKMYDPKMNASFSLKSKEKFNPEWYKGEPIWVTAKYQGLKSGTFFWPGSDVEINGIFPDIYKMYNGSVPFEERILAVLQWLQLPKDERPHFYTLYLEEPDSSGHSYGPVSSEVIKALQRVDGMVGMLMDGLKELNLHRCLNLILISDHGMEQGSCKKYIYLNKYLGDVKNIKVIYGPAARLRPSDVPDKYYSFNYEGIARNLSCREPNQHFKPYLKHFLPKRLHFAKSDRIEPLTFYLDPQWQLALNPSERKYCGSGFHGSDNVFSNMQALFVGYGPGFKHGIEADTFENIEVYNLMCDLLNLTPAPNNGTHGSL

The target in the assay is human ENPP1 enzymatic domain (Homo sapiens, UniProt P22413). The experiment in a line: ENPP1 Enzymatic Inhibition Assay (2′3′-cGAMP substrate, AMP-Glo luminescence). As to conditions: read-out: ENPP1 (cGAMP) Inhibition, 1 nM ENPP1, 20 uM 2′3′-cGAMP, 30 minutes at 37° C. How it is done:
The inhibition of ENPP1's phosphodiesterase activity were tested in a purified enzymatic assay using 2′3′-cyclic GAMP as a substrate which allowed for the release of cleaved AMP to be monitored using a luminescent assay.
Putative inhibitors were diluted in assay buffer (50 mM Tris pH 8.0, 250 mM NaCl, 0.5 mM CaCl2), 1 uM ZnCl2, 1% DMSO) and pre-incubated for 15 minutes at 37° C. with recombinant protein containing the human ENPP1 enzymatic domain (Viva Biotech). The enzymatic reaction was initiated upon addition of the 2′3′-cGAMP substrate. The final reaction concentrations were 1 nM ENPP1 and 20 uM 2′3′-cGAMP substrate in a 25 uL volume. Inhibitor concentrations ranged from 10 uM to 0.056 nM. The reaction was incubated for 30 minutes at 37° C.
After reacting for 30 minutes, the amount of AMP generated from the cleavage of 2′3′-cGAMP was determined using the Promega AMP-Glo method according to the manufacturer's protocol. […] The luminescence of the mixture was read on a Perkin Elmer Ensight plate reader.
The maximum and minimum levels of ENPP1 activity were established using no inhibitor and no enzyme controls, respectively. The activity observed using ENPP1 inhibitors was quantified as the percent of activity relative to these controls. IC50 values were calculated using CDD Vault by fitting a sigmoidal variable slope nonlinear regression model to the data.

As for `CCC(NS(=N)(=O)c1ccc(Oc2ccnc3cc(OC)ccc23)cc1)c1ccn(C)n1` (single isomer, unassigned), the IC50 was below 10 nM.
